Patent publication US6632977B2 (priority 1996, dated 2003)

Test system: μ receptor
Experiment: Saturation binding of [3H]DAGO to whole brain membrane proteins (Scatchard)

D-Ala^2MePhe^4Gly-ol^5 enkephalin
Kd ([3H]DAGO, μ receptor gene line, heterozygous +/−): 1.13 nM | Kd ([3H]DAGO, μ receptor gene line, homozygous −/−): und | Kd ([3H]DAGO, μ receptor gene line, wild +/+): 1.34 nM | Kd (read-out: DAGO Kd, kappa receptor gene line, heterozygous +/−): 1.36 nM | Kd (read-out: DAGO Kd, kappa receptor gene line, homozygous −/−): 1.39 nM | Kd (read-out: DAGO Kd, kappa receptor gene line, wild +/+): 1.26 nM

Like-named read-outs stand apart in the source and are kept apart here.
